Data from patent publication US8232099B2, “Method for transcription/degradation dual control of protein by antibiotic” (Japan Science and Technology Agency, priority 2007, dated 2012).
Residues, ends and D or L forms follow the SMILES beside them. *: point of attachment. Cbz = O=C(OCc1ccccc1)*

By UniProt entry, the sequences of proteins in these tests, tags left out.
UniProt P04483, whole entry D95N/L101S/G102D: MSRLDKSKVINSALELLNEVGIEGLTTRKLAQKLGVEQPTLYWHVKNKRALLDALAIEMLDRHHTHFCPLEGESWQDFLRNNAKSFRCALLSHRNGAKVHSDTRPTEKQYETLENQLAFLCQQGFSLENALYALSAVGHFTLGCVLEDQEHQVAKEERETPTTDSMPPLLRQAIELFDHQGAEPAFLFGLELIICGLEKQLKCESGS

Target: T1, mutant TetR-EGFP (Escherichia coli, UniProt P04483, D95N/G102D/L101S)
T1 construct: prepare a DNA fragment encoding TetR with no termination codon; expressed in transfected cells; host or cells: human cell line HEp-2, vector pEB6CAG
Assay: Flow cytometer fluorescence of HEp-2 cells expressing mutant TetR-EGFP
Type: cell-based, human
Conditions: 100 μg/ml MG132, 12 hours
Text: All of or any two mutations in combination from three types of mutations, which substitute aspartic acid at the 95th position with asparagine, leucine at the 101st position with serine and glycine at the 102nd position with aspartic acid, were introduced into the tetracycline repressor (TetR), which is an Escherichia coli protein that binds to the antibiotic tetracycline (Tet). The procedure was as follows:
An oligonucleotide encoding an amino acid sequence containing the amino acid substitution to be introduced was synthesized, and this was used to prepare a DNA fragment containing a mutation by PCR reaction. […]
An oligo-DNA was synthesized, having a base sequence in which the termination codon has been substituted so as to encode another amino acid instead of the termination codon in the TetR gene, and downstream thereof, a sequence that is recognized and cut by a restriction enzyme; this was used to carry out a PCR reaction to prepare a DNA fragment encoding TetR with no termination codon, and this was substituted with the corresponding site on the DNA encoding the wild-type gene. Then, the DNA was cut by a restriction enzyme and ligated with the upstream side of a DNA fragment encoding EGFP in such a way that the translation open reading frames for protein synthesis match (FIG. 1A). […]

## CC(C)C[C@@H](C=O)NC(=O)[C@H](CC(C)C)NC(=O)[C@H](CC(C)C)NC(=O)OCc1ccccc1 [MG132] (Cbz-Leu-Leu-Leu-aldehyde)
  change in intensity of fluorescence: remarkable enhancement of fluorescence
